The numbers were not newly measured in patent US11786507B2, “Methods of treating HIV-associated neurological disorders (HAND)” (priority 2020, dated 2023), which cites them from elsewhere.

Protein sequences, listed by entry. Tags and fused reporters are not part of them.
UniProt Q16539, whole entry: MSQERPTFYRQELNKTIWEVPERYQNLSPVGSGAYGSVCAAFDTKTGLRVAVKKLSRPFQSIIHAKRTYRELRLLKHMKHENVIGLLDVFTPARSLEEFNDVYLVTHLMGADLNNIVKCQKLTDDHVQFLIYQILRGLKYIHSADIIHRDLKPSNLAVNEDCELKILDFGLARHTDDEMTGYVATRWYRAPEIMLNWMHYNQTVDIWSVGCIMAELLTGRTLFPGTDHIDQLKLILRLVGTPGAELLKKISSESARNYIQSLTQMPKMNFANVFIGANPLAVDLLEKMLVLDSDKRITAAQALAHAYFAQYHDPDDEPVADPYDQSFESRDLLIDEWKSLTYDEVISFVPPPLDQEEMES

The series concerns the target p38 MAPK (Homo sapiens, UniProt Q16539). As to conditions: cited from earlier work.

Molecules are shown by their SMILES.

On to `Oc1ccc(-c2nc(-c3ccc(F)cc3)c(-c3ccncc3)[nH]2)cc1` [SB202190], for which the “Specificity / off-target effects” value is “off-target effects”.
